Source: patent US5514653A, “Method of blocking the SEC receptor” (Washington University, priority 1994, dated 1996)

Tested on: PC12 cells
Assay: MTT assay of neurotoxicity in PC12 cells
Assay type: cell-based
Settings: FIG. 1 and 2
From the text: The MTT assay (19) was used to monitor the neurotoxicity of amyloid-β peptide. […] Inhibition of MTT reduction is a specific, early indicator of amyloid-β-mediated cytotoxicity. The PC12 cell line was used because it is the most well characterized cell line of neuronal origin and because previous studies have shown there is abundant expression of SEC receptor in this cell line. Using ^125 I peptide 105Y there is specific, saturable binding.
First, the effect of amyloid-β 25-35 on MTT reduction in PC12 cells was examined (FIG. 1). PC12 cells were incubated for six (6) hours at 37° C. with amyloid-β 25-35 in several different concentrations as shown on the horizontal axis. MTT was added and the cells incubated at 37° C. for another two (2) hours. Cell extraction buffer was added and the incubation continued at 37° C. overnight. […] Results were reported as percent control response as determined by the difference between control cells and cells lysed prior to incubation with MTT. […]
In the MTT assay used herein, inhibition of cellular redox activity is measured by 3- 4,5-dimethylthiazol-2-yl!-2,5-diphenyltetrazolium bromide (MTT) by conventional procedures as described by Hansen et al. (19).

Substance: amyloid-β 1-16: region of the amyloid-β protein (DAEFRHDSGYEVHHQK)
- effect on MTT reduction: no effect
